Test results from patent publication US12692461B2, “Composite form of tetraacetylenediamine” (ONE1STAR SOLUTIONS LIMITED, priority 2020, dated 2026).

Test: Example 3: performance and water miscibility in presence of sodium percarbonate, weight of remaining material

- weight of the remaining material after 5 min (1 gram TAED, 2.5 gram sodium percarbonate, 1 litre water, 500 rpm, 20° C.): 600 ± 10 mg (unclear turbid solution)
- weight of the remaining material after 5 min (5 gram TAED in 1 litre water, sodium percarbonate): 4100 ± 10 mg (unclear
Structure (SMILES): CC(=O)N(CCN(C(C)=O)C(C)=O)C(C)=O [TAED (Commercially available), Tetraacetylethylenediamine]
